# According to PubChem BioAssay AID624291 (National Center for Advancing Translational Sciences (NCATS), 2012):
# This is a selection; strong and weak results do not stand in their true shares. Records with an inconclusive call do not appear. Calls of active or inactive are those of the source. Calls follow the shape of the dose curve; as a rule, active = well fitted activation curve with a large enough effect; inconclusive = small, poorly fitted or top-dose-only effect; inactive = no such curve, though single readings can be large or run the other way.
# Assay: qHTS for Activators of Integrin-Mediated Alleviation for Muscular Dystrophy;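 also: 100% = response of the positive control SU9516; nearly all actives have a fitted effect of over 60% in size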
# Details: alpha7betagal myoblasts, beta-gal FDG fluorescence, 48 h; at 38.3 µM (top of the series) unless noted
row,Compound,activation
1,Nc1ccc([As](=O)(O)c2ccc([N+](=O)[O-])cc2)cc1,inactive: 9.34%
2,O=C(OC1CN2CCC1CC2)c1cccc(Cl)c1 (stereo not given),inactive: -20.2%
3,CC(=O)NC(SC(=S)N(C)C)C(Cl)(Cl)Cl (stereo not given),inactive: -43.4%
4,O=[N+]([O-])c1ncn(CCn2cnc([N+](=O)[O-])n2)n1,inactive: 30.2%
5,O=[As](O)(c1ccccc1)c1ccc(O)cc1,inactive: 6.57%
6,C[C@H]1OP(=O)(Oc2ccccc2)[C@H](O)[C@H](O)[C@H]1N=[N+]=[N-] (stereo not given in full),inactive: -24.9%
7,O=P(Nc1nc2ccccc2s1)(c1ccccc1)c1ccccc1,inactive: -4.11%
8,COc1ccc(N)c([N+](=O)[O-])c1[N+](=O)[O-],inactive: 0%
9,O=P(Nc1ccccn1)(c1ccc(Br)cc1)c1ccc(Br)cc1,inactive: 31.1%
10,CN(C)C1(CNC(=O)c2ccc(Cl)c(S(N)(=O)=O)c2)CCCCC1,inactive: -16.4%
11,c1nnnn1CCn1cnnn1,inactive: -29.6%
12,CC(C)C(=O)NC(Sc1ccccc1)C(Cl)(Cl)Cl (stereo not given),inactive: 4.23%
13,O=P(Nc1nccs1)(c1ccccc1)c1ccccc1,inactive: 27.4%
14,CC1(CBr)Cn2c(nc3ccccc3c2=O)S1 (stereo not given),inactive: 1.91%
15,CC(C)/C=N\N=C(\N)N[N+](=O)[O-],inactive: -30.2%
16,COc1ccccc1CNC(=O)COC(=O)C(O)(c1ccccc1)c1ccccc1,inactive: 9.86%
17,CC(C)(C)C(=O)NC(Sc1ncccn1)C(Cl)(Cl)Cl (stereo not given),inactive: -18.6%
18,O=P1(N(CCCl)CCCl)NCCC(C(F)(F)F)O1 (stereo not given),inactive: -11.7%
19,Clc1n[nH]nc1-c1nn[nH][15n]1,inactive: 10%
20,CCOP(=O)(Nc1ccc(C)cn1)OCC,inactive: -12.9%
21,CCOP(=O)(NC(=NC(C)c1ccccc1)NC(C)c1ccccc1)OCC (stereo not given),inactive: 3%
22,O=P1(Nc2ccccn2)COc2ccccc2OC1,inactive: 13.5%
23,CCC1=CC2Cc3nc4ccc(Cl)cc4c(N)c3C(C1)C2 (stereo not given),inactive: 44.4%

row,Compound,activation
1,Cc1ccc(OCC(=O)OC2CN3CCC2CC3)cc1 (stereo not given),inactive: 10.1%
2,O=[As](O)(c1cccs1)c1cccs1,inactive: -5.62%
3,O=P1(Nc2ccc(Br)cn2)COc2ccccc2OC1,inactive: 0%
4,NS(=O)(=O)c1cccc(NC(=O)COC(=O)C(O)(c2ccccc2)c2ccccc2)c1,inactive: 0%
5,Nc1cccc([As](=O)(O)c2ccccc2)c1,inactive: -22.7%
6,O=P1(Nc2ncccn2)COc2ccccc2OC1,inactive: 0%
7,CCCC1OP(=O)(Nc2ccccc2)OCC1CC (stereo not given),inactive: -22.3%
8,O=C(/C=C/c1ccccc1)OC1CN2CCC1CC2 (stereo not given),inactive: -9.39%
9,CN(C)C1(CNC(=O)c2ccc(S(C)(=O)=O)cc2)CCCCC1,inactive: 18.8%
10,CC1CCC(C(C)C)C(OP(=O)(Nc2ccccn2)c2ccccc2)C1 (stereo not given),inactive: -51.2%
11,Cc1ccc(C(=O)OC2CN3CCC2CC3)cc1 (stereo not given),inactive: 3.81%
12,Cc1nn(-c2ccccc2)c2c1P(=O)(N1CCOCC1)N(C)C(c1ccccc1)=N2 (stereo not given),inactive: 0.755%
13,O=[N+]([O-])c1ccc2c(c1)nnn2O,inactive: 16.8% [at 7.66 µM]
14,CN(C)C(=O)c1cc([N+](=O)[O-])cc2c1-c1c(cc([N+](=O)[O-])cc1[N+](=O)[O-])C2=O,inactive: -59.1%
15,CCOP1(=S)c2c(C)nn(CCC#N)c2N=C(c2ccc(F)cc2)N1C (stereo not given),inactive: -25.1%
16,N#CCCN(C(=O)COC(=O)C(O)(c1ccccc1)c1ccccc1)c1ccc(F)cc1,inactive: -5.22%
17,NC(=O)Nc1ccc([As](=O)(O)O)cc1,inactive: -32.1%
18,Nc1ccccc1[As](=O)(O)c1ccccc1,inactive: -12.4%
19,O=C(O)COc1ccc([As](=O)(O)O)cc1[N+](=O)[O-],inactive: 0%
20,CS(=O)(=O)c1cc([N+](=O)[O-])c2no[n+]([O-])c2c1,inactive: -29.9%
21,O=P(Nc1nccs1)(Oc1ccccc1)Oc1ccccc1,inactive: 24.9%
22,O=P(Nc1nccs1)(c1ccccc1)c1nc2ccccc2s1 (stereo not given),inactive: -39.3%
23,CCOP1(=S)c2c(C)nn(CCC#N)c2N=C(c2ccccc2F)N1C (stereo not given),inactive: 7.58%

row,Compound,activation
1,CCCOP(=S)(Nc1nc(N)cc(=O)[nH]1)OCCC,inactive: -15.8%
2,Cc1ccc(NCCc2c([N+](=O)[O-])cc([N+](=O)[O-])cc2[N+](=O)[O-])cc1,inactive: -31%
3,Nc1cccc2c([As](=O)(O)O)cccc12,inactive: -24.7%
4,Cc1cccc(OCC(=O)OC2CN3CCC2CC3)c1 (stereo not given),inactive: 1.6%
5,O=[As](O)(c1cccc(O)c1)c1cccc(O)c1,inactive: -21%
6,CS(=O)(=O)c1ccc(Cl)c(NC(=O)COC(=O)C(O)(c2ccccc2)c2ccccc2)c1,inactive: -27.7%
7,O=[As](O)(O)c1cccnc1,inactive: 27.4%
8,COc1cc(C(=O)NCC2(N3CCOCC3)CCCCC2)cc(Cl)c1OC(C)C,inactive: -28.4%
9,O=C(OC1CN2CCC1CC2)c1ccc(Cl)cc1 (stereo not given),inactive: 0.468%
10,COc1ccc(N/C(=N/P(=O)(N2CCOCC2)N2CCOCC2)N2CCOCC2)cc1,inactive: -5.4%
11,O=[N+]([O-])c1cc(Oc2ccc([N+](=O)[O-])cc2C(F)(F)F)cc([N+](=O)[O-])c1,inactive: -40.7%
12,COc1cc(I)ccc1[As](=O)(O)O,inactive: -35.3%
13,COc1ccc2nc(NP(=O)(c3ccccc3)c3ccccc3)sc2c1,inactive: 18.4%
14,O=P1(N(CCCl)CCCl)Nc2ccccc2N1,inactive: 11%
15,O=P1(N(CCCl)CCCl)OCCCN1CCCl (stereo not given),inactive: 16.4%
16,O=C(OC1CN2CCC1CC2)C12CC3CC(CC(C3)C1)C2 (stereo not given),inactive: 11.8%
17,O=[N+]([O-])c1cc([N+](=O)[O-])c(-c2ccn[nH]2)s1,inactive: -55.8%
18,CC(C)NC(=O)NP(=O)(Oc1ccccc1)Oc1ccccc1,inactive: 17.5%
19,CCN(CC)C(=S)SC(NC=O)C(Cl)(Cl)Cl (stereo not given),inactive: -47.4%
20,O=C(OC1CN2CCC1CC2)c1cccc2[nH]cnc12 (stereo not given),inactive: -9.89%
21,COC(=O)C1(C)COP(=O)(N2CCCCCC2)OC1 (stereo not given),inactive: -0.89%
22,CC(C)c1ccc(OP(=O)(Nc2ccccn2)Oc2ccccc2F)cc1 (stereo not given),inactive: -23.1%
23,ClCCSc1nnc(-c2cccnc2)o1,inactive: 2.84%

row,Compound,activation
1,Cc1ccc(OP(=O)(Nc2ccc([N+](=O)[O-])cn2)Oc2ccc(C)cc2)cc1,inactive: -12.1%
2,O=[N+]([O-])c1ccc(-c2cc([N+](=O)[O-])c(O)c([N+](=O)[O-])c2)cc1,inactive: 6.42%
3,C[As](=O)(O)c1cccc(C(=O)O)c1,inactive: 10.1%
4,O=[As](O)(c1ccc(O)cc1)c1ccccc1O,inactive: 3.49%
5,O=[N+]([O-])c1ccc(Nc2ccc(Oc3ccc([N+](=O)[O-])cc3[N+](=O)[O-])cc2)c([N+](=O)[O-])c1,inactive: -4.1%
6,O=P(Nc1ccccn1)(c1cccc2ccccc12)c1cccc2ccccc12,inactive: -7.19%
7,Cc1cc(SC(NC=O)C(Cl)(Cl)Cl)ncn1 (stereo not given),inactive: -8.39%
8,Cc1cc(SC(NC(=O)c2ccccc2)C(Cl)(Cl)Cl)nc(C(C)C)n1 (stereo not given),inactive: 7.47%
9,CCCCOc1ccc(C(=O)NCC2(N3CCCCC3)CCCCC2)cc1OC,inactive: -7.91%
10,COP(=O)(OC)N1CC1c1ccccc1 (stereo not given),inactive: 13.5%
11,CC1CCNP(=O)(N(CCCl)CCCl)O1 (stereo not given),inactive: 18.5%
12,CCOC(=O)Nc1ccc([As](=O)(O)O)c(O)c1,inactive: -14.1%
13,O=C(O)C(O)c1ccc(N(CCCl)CCCl)cc1 (stereo not given),inactive: 4.88%
14,CCC(C)N(CC(C)C)C(=S)SC(NC(C)=O)C(Cl)(Cl)Cl (stereo not given),inactive: -53.7%
15,CCOC(=O)c1ccc(NC(=O)C(C)(CCl)SC)cc1 (stereo not given),inactive: 7.55%
16,CSc1ccc(Nc2c([N+](=O)[O-])cc([N+](=O)[O-])cc2[N+](=O)[O-])cc1,inactive: -67.3%
17,O=C(OC1CN2CCC1CC2)c1cccc([N+](=O)[O-])c1 (stereo not given),inactive: -21.8%
18,O=C(Nc1ccncc1[N+](=O)[O-])c1ccc([N+](=O)[O-])cc1[N+](=O)[O-],inactive: -3.57%
19,O=C(COc1ccccc1)OC1CN2CCC1CC2 (stereo not given),inactive: -1.92%
20,O=C(O)C(=O)c1ccc(N(CCCl)CCCl)cc1,inactive: -11.2%
21,COP1(=S)c2c(C)nn(CCC#N)c2N=C(c2ccc(F)cc2)N1C (stereo not given),inactive: 15.7%
